Here are results for one molecule from BindingDB's records for PubMed 9454810 (Sanofi Recherche, 1998).

Sequences of proteins named here, by UniProt entry; tags and fusion partners are left off.
UniProt P21554, whole entry: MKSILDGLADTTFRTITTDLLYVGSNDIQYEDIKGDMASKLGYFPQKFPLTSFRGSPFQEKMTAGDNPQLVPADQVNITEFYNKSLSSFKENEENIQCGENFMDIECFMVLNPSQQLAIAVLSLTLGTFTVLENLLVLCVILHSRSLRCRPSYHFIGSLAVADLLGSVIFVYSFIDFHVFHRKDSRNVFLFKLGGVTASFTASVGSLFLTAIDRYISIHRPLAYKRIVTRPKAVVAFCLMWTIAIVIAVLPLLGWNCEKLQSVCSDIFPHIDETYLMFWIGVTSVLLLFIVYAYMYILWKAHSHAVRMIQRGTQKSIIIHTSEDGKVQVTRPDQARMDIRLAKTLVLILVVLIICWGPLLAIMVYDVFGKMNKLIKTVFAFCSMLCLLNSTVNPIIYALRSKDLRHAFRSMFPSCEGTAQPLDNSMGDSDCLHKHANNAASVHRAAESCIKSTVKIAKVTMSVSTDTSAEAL
UniProt P20272, whole entry: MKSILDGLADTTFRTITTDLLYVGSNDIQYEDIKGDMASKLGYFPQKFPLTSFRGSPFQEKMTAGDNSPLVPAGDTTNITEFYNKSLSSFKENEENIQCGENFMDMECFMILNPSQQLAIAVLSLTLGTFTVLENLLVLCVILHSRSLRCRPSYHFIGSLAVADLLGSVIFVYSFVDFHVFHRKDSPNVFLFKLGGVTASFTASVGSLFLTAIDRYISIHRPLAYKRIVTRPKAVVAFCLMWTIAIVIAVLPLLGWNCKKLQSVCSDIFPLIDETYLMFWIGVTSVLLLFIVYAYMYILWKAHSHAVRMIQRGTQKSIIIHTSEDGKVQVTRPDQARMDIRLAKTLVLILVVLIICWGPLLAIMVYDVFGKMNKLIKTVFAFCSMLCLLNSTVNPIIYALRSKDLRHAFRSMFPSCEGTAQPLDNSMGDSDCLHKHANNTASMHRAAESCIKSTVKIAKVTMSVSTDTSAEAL

Broadly, the pKi is the Ki on a negative log10 scale, so that one unit is a factor of ten. Lower therefore signals a high Ki.

pKi: −log10 of the molar value.

One test has as its target T1, Cannabinoid receptor 2 (Rattus norvegicus, UniProt Q9QZN9).
T1 sequence (Q9QZN9 whole entry): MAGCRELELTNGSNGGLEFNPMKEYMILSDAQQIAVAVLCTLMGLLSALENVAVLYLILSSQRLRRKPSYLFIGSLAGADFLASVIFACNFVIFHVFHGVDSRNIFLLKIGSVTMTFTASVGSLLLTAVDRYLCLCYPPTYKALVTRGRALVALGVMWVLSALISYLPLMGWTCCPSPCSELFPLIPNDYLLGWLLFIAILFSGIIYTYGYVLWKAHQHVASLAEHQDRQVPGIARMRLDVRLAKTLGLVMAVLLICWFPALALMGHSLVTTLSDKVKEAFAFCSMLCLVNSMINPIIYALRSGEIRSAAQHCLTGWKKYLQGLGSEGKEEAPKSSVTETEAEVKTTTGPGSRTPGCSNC

In test [1] the target is Cannabinoid receptor 1 (Homo sapiens, UniProt P21554).
Test [2] concerns the target Cannabinoid receptor 1 (Rattus norvegicus, UniProt P20272).

In the case of `Cc1ccc(Cn2nc(C(=O)NC3C(C)(C)C4CC[C@@]3(C)C4)cc2-c2ccc(Cl)c(C)c2)cc1` (stereo partly drawn) [N-(1,3,3-trimethylbicyclo(2.2.1)heptan-2-yl)-5-(4-chloro-3-methylphenyl)-1-(4-methylbenzyl)pyrazole-3-carboxamide], the pKi on Cannabinoid receptor 2 was 9.52; at Cannabinoid receptor 1 [1], 6.36; on Cannabinoid receptor 1 [2], 6.52.
